Data on one compound can be found in patent US20240150335A1, “FUSED RING DERIVATIVES CONTAINING 1,4-OXAZEPANE” (MEDSHINE DISCOVERY INC., priority 2021, published 2024).

Sequences of proteins named here, by UniProt entry; tags and fusion partners are left off. Residues count along the entry.
UniProt P53634, 25-134 limits assumed: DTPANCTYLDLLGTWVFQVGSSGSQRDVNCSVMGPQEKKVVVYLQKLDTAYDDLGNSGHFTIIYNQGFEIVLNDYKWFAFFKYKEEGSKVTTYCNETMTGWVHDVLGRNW
UniProt P53634, 231-394 limits assumed: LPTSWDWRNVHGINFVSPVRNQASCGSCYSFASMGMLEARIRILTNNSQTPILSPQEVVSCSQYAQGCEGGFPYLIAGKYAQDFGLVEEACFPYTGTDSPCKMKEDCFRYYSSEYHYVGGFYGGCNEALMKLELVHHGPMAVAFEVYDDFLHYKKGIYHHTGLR
UniProt P53634, 395-463 limits assumed: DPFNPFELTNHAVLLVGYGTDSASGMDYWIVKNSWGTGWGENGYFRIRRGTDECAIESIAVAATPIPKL

For orientation: IC50 means the midpoint of a concentration-inhibition curve.

One assay concerns the target DPP1 of U937 cells (Homo sapiens (Human), UniProt P53634). The assay can be described thus: Activity test of inhibiting DPP1 in U937 cells. The note with it: read-out: IC50, inhibitory activity on DPP1 of U937 cells, Gly-Phe-AFC probe.
The target of assay [1] is Recombinant human cathepsin C/DPP1. The assay can be described thus: Inhibition effect test of DPP1 enzyme activity. The note with it: read-out: IC50, inhibitory activity on DPP1 enzyme; recombinant human cathepsin C/DPP1, Gly-Arg-AMC substrate 12.5 μM, 25° C. 60 minutes.

Regarding `Cn1ccc2ncc(-c3ccc(CC(C#N)NC(=O)[C@@H]4CNCCCO4)c(F)c3)cc21` (some centres unmarked), the IC50 on DPP1 of U937 cells worked out at 9.58 nM; in assay [1] it was 11.5 nM.
